Results: patent US20260014194A1, “COMBINATIONS COMPRISING METAP2 INHIBITORS FOR THE TREATMENT OF CANCER” (SynDevRx, Inc., priority 2022, published 2026)

Test: Body weight, adipose tissue mass and tolerability in E0771 tumor-bearing high-fat diet mice
Settings: eribulin mesylate 2 mg/kg, IP/Q4D; multiple early terminations; FIG. 4

C=C1C[C@@H]2CC[C@@]34C[C@H]5O[C@H]6[C@@H](O3)[C@H]3O[C@H](CC[C@@H]3O[C@H]6[C@H]5O4)CC(=O)C[C@@H]3[C@@H](OC)[C@@H](C[C@H](O)CN)O[C@H]3C[C@H]3O[C@@H](CC[C@@H]1O2)C[C@@H](C)C3=C
Tolerability: not well tolerated
